Assay results: patent US20140187559A1, “INHIBITORS OF THE FIBROBLAST GROWTH FACTOR RECEPTOR” (BLUEPRINT MEDICINES CORPORATION, priority 2012, published 2014)

Chains of the proteins cited; added tags and fusions are not shown. Residues count along the entry.
UniProt P22455, 22-802: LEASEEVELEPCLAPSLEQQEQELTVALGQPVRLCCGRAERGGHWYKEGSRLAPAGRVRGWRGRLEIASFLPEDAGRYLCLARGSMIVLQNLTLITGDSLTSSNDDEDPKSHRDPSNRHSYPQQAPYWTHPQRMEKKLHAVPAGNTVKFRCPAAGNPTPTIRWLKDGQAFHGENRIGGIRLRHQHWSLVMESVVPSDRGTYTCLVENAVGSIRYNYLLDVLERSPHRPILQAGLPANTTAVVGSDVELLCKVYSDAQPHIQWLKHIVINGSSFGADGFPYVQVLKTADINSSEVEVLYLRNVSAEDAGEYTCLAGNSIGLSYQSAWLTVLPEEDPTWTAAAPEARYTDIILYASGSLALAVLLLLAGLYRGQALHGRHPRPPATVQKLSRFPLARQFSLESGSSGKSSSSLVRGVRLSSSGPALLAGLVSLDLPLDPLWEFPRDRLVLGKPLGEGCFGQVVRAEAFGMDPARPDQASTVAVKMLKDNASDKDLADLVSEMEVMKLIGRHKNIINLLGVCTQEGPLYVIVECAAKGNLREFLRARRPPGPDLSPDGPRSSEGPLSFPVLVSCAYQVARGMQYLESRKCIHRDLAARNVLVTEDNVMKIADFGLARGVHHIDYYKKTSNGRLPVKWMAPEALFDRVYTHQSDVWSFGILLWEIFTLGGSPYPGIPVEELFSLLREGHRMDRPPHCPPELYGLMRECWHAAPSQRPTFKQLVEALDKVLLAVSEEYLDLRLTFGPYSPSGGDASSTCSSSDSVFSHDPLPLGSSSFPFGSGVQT

Target: T1, wild type FGFR-4 (Homo sapiens, UniProt P22455)
T1 construct: purchased Carna Biosciences, Inc
Assay: FGFR-4 wild type assay at Km (Caliper mobility shift)
Assay type: biochemical
Conditions: [IC50 for FGFR1]/[IC50 for FGFR4]

| Compound | Ratio FGFR1/FGFR4 |
| --- | --- |
| C=CC(=O)Nc1ccccc1Nc1ncc2cc(-c3c(Cl)c(OC)cc(OC)c3Cl)c(=O)n(C)c2c1C [COMPOUND 40, N-(2-((3-(2,6-dichloro-3,5-dimethoxyphenyl)-1,8-dimethyl-2-oxo-1,2-dihydro-1,6-naphthyridin-7-yl)amino)phenyl)acrylamide] | A (the ratio is >500) |
| C=CC(=O)Nc1cccc(C)c1Nc1ncc2cc(-c3c(Cl)c(OC)cc(OC)c3Cl)cc(F)c2n1 [COMPOUND 34, N-(2-((6-(2,6-dichloro-3,5-dimethoxyphenyl)-8-fluoroquinazolin-2-yl)amino)-3-methylphenyl)acrylamide] | D (the ratio is ≧50 and <100) |
